Earlier results, collected in patent publication US20060276412A1, “METHODS AND COMPOSITIONS FOR MANAGING PSYCHOTIC DISORDERS” (priority 2005, published 2006).

Assays:
[1] = at one year, treated patients, one study; cited from earlier work
[2] = test system: cholinergic muscarinic receptors; conditions: cited from earlier work

In the case of `Cc1cc2c(s1)Nc1ccccc1N=C2N1CCN(C)CC1` [olanzapine], the average weight gain [1] is listed as 12 kg and the “affinity for cholinergic muscarinic receptors” value [2] is listed as “lower affinity”.
